The list shows a part of the results, in another mix than the full data. Some salts and complexes are drawn in separate pieces, as the source files them; their charges need not balance. Calls of active or inactive are those of the source. No stated cut-off is given here; in the data, active means max activation above about 30%; inactive means the rest.

Chains of the proteins cited; added tags and fusions are not shown.
UniProt P35462, whole entry: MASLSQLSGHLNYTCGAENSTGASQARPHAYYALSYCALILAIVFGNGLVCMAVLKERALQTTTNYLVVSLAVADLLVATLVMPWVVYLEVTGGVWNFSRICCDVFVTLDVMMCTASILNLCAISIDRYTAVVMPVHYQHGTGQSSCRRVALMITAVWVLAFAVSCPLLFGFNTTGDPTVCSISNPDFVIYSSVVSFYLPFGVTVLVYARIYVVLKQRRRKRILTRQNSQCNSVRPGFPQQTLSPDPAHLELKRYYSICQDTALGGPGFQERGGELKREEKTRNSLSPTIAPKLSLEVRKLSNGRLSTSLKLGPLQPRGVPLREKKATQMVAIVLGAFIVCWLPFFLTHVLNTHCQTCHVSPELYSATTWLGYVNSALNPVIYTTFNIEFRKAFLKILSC

This test addresses D(3) dopamine receptor (Homo sapiens) (UniProt P35462). Nature of the test: qHTS of D3 Dopamine Receptor Agonist: qHTS. Further: 0% is about no effect. Particulars: D3R DiscoveRx beta-arrestin cells, luminescence, 90 min; hits give high values. From the text:
D3 DARs represent a very important target for the treatment of several neuropsychiatric disorders. Indeed, one of the most promising therapeutic applications for the D3 DAR is in the area of addiction and related disorders. […] These findings have been observed with a number of addictive substances including cocaine, amphetamine, nicotine, and alcohol. […] Antagonism of the D3 DAR may also be therapeutic in the treatment of schizophrenia or psychosis. […] Since the D3 DAR is expressed in areas of the CNS associated with the control of mood and emotion, it has been hypothesized that selective antagonism of the D3 DAR may be effective in treating psychosis without inducing the motor side effects typically seen with D2 DAR antagonists.
This part of the project aims to discover novel agonist.
NIH Chemical Genomics Center [NCGC]
NIH Molecular Libraries Probe Centers Network [MLPCN]
Assay Submitter (PI): David Sibley, NINDS
Freshly passaged cells are plated in 1536 well white, solid bottom plates at a density of 1500 cells/well in 3microl of complete media. After an overnight incubation at 37 degrees C in 5% CO2, cells are loaded with 23nl of test compound from the compound library (as well as dopamine controls) using a 1536 pintool and incubated at 37 degrees C for 90 minutes. Two microliters of DiscoveRx reagent is then added to all cells, and they are incubated for an additional 30 - 60 minutes at room temperature. Following incubation, luminescence is measured on a ViewLux CCD-based luminometer reader using a 20 sec exposure time.
(Quantitative high-throughput screening tests each substance at several concentrations.)
Take `Cc1cc(C)cc(N(C(=O)c2ccccc2)C2CCN(C(=O)OC(C)(C)C)CC2)c1`: the max activation was inactive: 1.15%.

`O=C(NCC1(N2CCCCC2)CCCCC1)c1ccc(Cl)nc1`: the max activation was inactive: -15%.

Turning to `O=c1[nH]c2ccccc2n1C1CCN(C(c2ccccc2OC(F)(F)F)c2nnnn2C2CCCCC2)CC1` (centres undefined), the max activation was inactive: 2.98%.

`O=C(NCC1(N2CCOCC2)CCCCC1)c1cc2ccccc2o1`: the max activation was inactive: 1.44%.

On to `COc1ccc(Cl)cc1C(=O)NCC1(N2CCOCC2)CCCCC1`, for which the max activation was inactive: -7.36%.

As to `O=C1C(O)=C([N+](=O)[O-])C(=O)C(O)=C1[N+](=O)[O-]`, the max activation is inactive: -16.2%.

As to `O=C(NCC1(N2CCCCC2)CCCCC1)c1ccc(Cl)s1`, the max activation was inactive: -16.2%.

Regarding `N#CC1(Nc2ccccc2)CCN(Cc2ccccc2)CC1`, the max activation is inactive: -2.18%.

For `O=C(OC1CN2CCC1CC2)C1c2ccccc2Oc2ccccc21` (centres undefined), the max activation was inactive: 1.44%.

In the case of `O=c1[nH]c2ccccc2n1C1CCN(C(c2cc3ccccc3o2)c2nnnn2C2CCCCC2)CC1` (centres undefined), the max activation is inactive: 6.44%.

Consider `CCCCn1nnnc1C(c1ccc(OC)cc1)N1CCC(n2c(=O)[nH]c3ccccc32)CC1` (centres undefined), for which the max activation was inactive: -16.8%.

Turning to `CCOC(=O)N1CCC(Nc2ccc(OC)cc2)CC1`, the max activation was inactive: 0.04%.

Consider `CC(C)(C)OC(=O)N1CCC(N(C(=O)c2ccccc2)c2ccc(F)cc2)CC1`, for which the max activation is inactive: 2.67%.

For the compound `COc1ccc(C(=O)NCC2(N3CCCCC3)CCCCC2)c(OC)c1OC`, the max activation is inactive: -2.49%.

`CCC(c1nnnn1C1CCCC1)N1CCC(n2c(=O)[nH]c3ccccc32)CC1` (centres undefined): the max activation was inactive: -6.57%.

`COc1ccc(C(=O)NCC2(N3CCCCC3)CCCCC2)cc1`: the max activation is inactive: -14.2%.

As for `O=C(NCC1(N2CCCCC2)CCCCC1)c1cccs1`, the max activation was inactive: -12.1%.

Take `CCCCn1nnnc1C(CC)N1CCC(n2c(=O)[nH]c3ccccc32)CC1` (centres undefined): the max activation was inactive: 2.29%.

With `CCCCn1nnnc1C(c1cccs1)N1CCC(n2c(=O)[nH]c3ccccc32)CC1` (centres undefined), the max activation was inactive: -6.82%.

Take `O=C(NCC1(N2CCCCC2)CCCCC1)c1ccc(=O)[nH]c1`: the max activation was inactive: -1.85%.

Take `Cc1cccc(NC2(C#N)CCN(Cc3ccccc3)CC2)c1`: the max activation is inactive: -10.5%.

`CSc1ccccc1C(=O)NCC1(N2CCCCC2)CCCCC1`: the max activation was inactive: 2.87%.

Regarding `O=c1[nH]c2ccccc2n1C1CCN(C(c2ccccc2)c2nnnn2C2CCCCC2)CC1` (centres undefined), the max activation is inactive: 2.49%.

As for `CCOC(=O)N1CCC(Nc2cccc(C)c2)CC1`, the max activation was inactive: 6.26%.

On to `COc1cc(C(=O)NCC2(N(C)C)CCCCC2)ccc1OC(F)F`, for which the max activation was inactive: -12.2%.

With `O=c1[nH]c2ccccc2n1C1CCN(C(c2cccc3ccccc23)c2nnnn2C2CCCC2)CC1` (centres undefined), the max activation was inactive: -8.34%.

With `O=C1CCN(Cc2ccccc2)CC1`, the max activation is inactive: -32.4%.

For `O=C(NCC1(N2CCOCC2)CCCCC1)c1ccc(Cl)cc1`, the max activation is inactive: -18.8%.

Regarding `CC(C)(C)n1nnnc1C(c1ccccc1)N1CCC(n2c(=O)[nH]c3ccccc32)CC1` (centres undefined), the max activation is inactive: -7.1%.

On to `CCOc1ccc(C)cc1CN(CCCl)CCCl`, for which the max activation was inactive: 0.447%.

For the compound `COc1ccccc1C(=O)NCC1(N2CCOCC2)CCCCC1`, the max activation is inactive: -4.63%.

As to `COc1ccc(NC2CCN(CCc3ccccc3)CC2)c(OC)c1`, the max activation is inactive: -53.3%.

`CCOC(=O)N1CCC(Nc2ccc(F)cc2)CC1`: the max activation is inactive: 7.43%.

Turning to `CCCCn1nnnc1C(c1cc2ccccc2o1)N1CCC(n2c(=O)[nH]c3ccccc32)CC1` (centres undefined), the max activation was inactive: 3.44%.

With `O=P1(N(CCCl)CCCl)SCCCS1`, the max activation is inactive: 8.78%.

Consider `CCCCOc1ccc(C(=O)NCC2(N3CCOCC3)CCCCC2)cc1`, for which the max activation was inactive: -3.06%.

Consider `O=C(NCC1(N2CCCCC2)CCCCC1)c1ccc(F)cc1`, for which the max activation is inactive: -11.3%.

Regarding `O=[N+]([O-])c1cc([N+](=O)[O-])c(NCC2CCS(=O)(=O)C2)c([N+](=O)[O-])c1` (centres undefined), the max activation was inactive: -11.6%.

In the case of `CCCOc1cccc(C(=O)NCC2(N3CCOCC3)CCCCC2)c1`, the max activation was inactive: 3.04%.

As to `O=C(NCC1(N2CCCCC2)CCCCC1)c1cccc(C(F)(F)F)c1`, the max activation was inactive: -17.2%.

For the compound `COc1cc(C(=O)NCC2(N3CCCCC3)CCCCC2)ccc1OC(F)F`, the max activation was inactive: -18.4%.

Take `O=C(NCC1(N2CCOCC2)CCCCC1)c1cc(=O)[nH]c2ccccc12`: the max activation is inactive: 0.598%.

For the compound `CN1CCN(CCOC(=O)C(O)(c2ccccc2)c2ccccc2)CC1`, the max activation was inactive: -8.51%.

As to `CC(C)c1ccc(C(=O)NCC2(N3CCOCC3)CCCCC2)cc1`, the max activation is inactive: -17.9%.

As to `COc1ccc(NC2CCN(C(=O)OC(C)(C)C)CC2)cc1`, the max activation is inactive: 4.29%.

Regarding `CCCCn1nnnc1C(c1cccc2ccccc12)N1CCC(n2c(=O)[nH]c3ccccc32)CC1` (centres undefined), the max activation was inactive: -9.2%.

In the case of `O=C(NCC1(N2CCCCC2)CCCCC1)c1ccc(OC(F)F)cc1`, the max activation is inactive: -3.07%.

As for `CC(C)(C)n1nnnc1C(c1ccccc1OC(F)(F)F)N1CCC(n2c(=O)[nH]c3ccccc32)CC1` (centres undefined), the max activation is inactive: 7.41%.

Regarding `O=c1[nH]c2ccccc2n1C1CCN(C(c2ccccc2OC(F)(F)F)c2nnnn2C2CCCC2)CC1` (centres undefined), the max activation is inactive: 9.78%.

On to `N#CC1(Nc2ccccc2)CCN(CCc2ccccc2)CC1`, for which the max activation is inactive: 2.33%.

As for `CCN1CCC(Nc2ccc(Cl)cc2)CC1`, the max activation was inactive: 0.0073%.

As for `O=C(NCC1(N2CCCCC2)CCCCC1)c1cccc([N+](=O)[O-])c1`, the max activation was inactive: -16%.

Take `CCOc1ccc(C(=O)NCC2(N3CCOCC3)CCCCC2)cc1`: the max activation is inactive: -1.79%.

For the compound `CSc1ccc(C(=O)NCC2(N3CCOCC3)CCCCC2)cc1`, the max activation is inactive: -16.1%.

As to `O=C(OC1CN2CCC1CC2)c1ccc([N+](=O)[O-])cc1` (centres undefined), the max activation is inactive: 7.89%.

As to `CN1CCC(Nc2cccc(F)c2)CC1`, the max activation is inactive: -9.52%.

For `COc1ccc2c(c1O)-c1c(O)c(OC)cc3c1[C@H](C2)[N+](C)(C)CC3.O=[N+]([O-])c1cc([N+](=O)[O-])c([O-])c([N+](=O)[O-])c1[O-]`, the max activation is inactive: -7.66%.

Take `O=C(NCC1(N2CCCCC2)CCCCC1)c1cncc(Br)c1`: the max activation was inactive: -25.5%.

Consider `O=[N+]([O-])c1cc([N+](=O)[O-])c(Nc2ccc(Cl)cc2)c([N+](=O)[O-])c1`, for which the max activation was inactive: -6.41%.
